Source: ChEMBL document CHEMBL1145905, “Design and synthesis of novel dimeric morphinan ligands for kappa and micro opioid receptors” (J Med Chem, 2003)

Chains of the proteins cited; added tags and fusions are not shown. Lines headed by an entry give the natural chain unless they say otherwise; changes in a name come on top.
UniProt P41145: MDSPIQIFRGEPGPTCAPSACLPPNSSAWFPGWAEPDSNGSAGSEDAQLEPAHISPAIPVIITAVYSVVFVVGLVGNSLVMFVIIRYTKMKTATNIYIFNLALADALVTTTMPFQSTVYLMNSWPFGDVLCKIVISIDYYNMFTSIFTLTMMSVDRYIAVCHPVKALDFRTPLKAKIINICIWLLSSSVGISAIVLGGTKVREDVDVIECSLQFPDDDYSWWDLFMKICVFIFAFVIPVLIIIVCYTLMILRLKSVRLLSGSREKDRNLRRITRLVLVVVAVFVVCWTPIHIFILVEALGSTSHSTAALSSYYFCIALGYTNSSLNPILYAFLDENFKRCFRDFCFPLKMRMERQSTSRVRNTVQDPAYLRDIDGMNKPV
UniProt P41143, whole entry, looked up: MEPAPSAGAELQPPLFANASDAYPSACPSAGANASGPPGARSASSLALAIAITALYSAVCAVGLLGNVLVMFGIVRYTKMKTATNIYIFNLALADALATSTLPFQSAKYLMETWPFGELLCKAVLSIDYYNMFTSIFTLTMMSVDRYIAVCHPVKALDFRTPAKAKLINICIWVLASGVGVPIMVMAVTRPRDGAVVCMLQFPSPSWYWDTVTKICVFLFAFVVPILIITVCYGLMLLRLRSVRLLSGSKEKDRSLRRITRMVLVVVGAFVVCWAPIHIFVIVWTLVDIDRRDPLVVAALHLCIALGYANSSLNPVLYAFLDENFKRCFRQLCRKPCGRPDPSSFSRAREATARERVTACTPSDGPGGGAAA
UniProt P35372, whole entry, looked up: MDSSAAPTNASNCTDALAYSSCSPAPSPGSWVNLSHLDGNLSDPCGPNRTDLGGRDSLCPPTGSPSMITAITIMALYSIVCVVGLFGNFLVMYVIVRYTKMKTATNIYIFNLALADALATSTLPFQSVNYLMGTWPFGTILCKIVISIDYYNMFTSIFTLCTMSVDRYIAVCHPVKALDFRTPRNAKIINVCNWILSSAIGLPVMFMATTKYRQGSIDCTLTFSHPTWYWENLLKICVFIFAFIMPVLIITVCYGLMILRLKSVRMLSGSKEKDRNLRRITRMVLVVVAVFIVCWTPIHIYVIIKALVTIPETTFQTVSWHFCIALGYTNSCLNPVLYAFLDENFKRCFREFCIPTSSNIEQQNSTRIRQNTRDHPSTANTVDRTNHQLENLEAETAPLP

What was measured:
[1] = biological target: Opioid receptors; delta & kappa (Homo sapiens) (UniProt P41145+P41143); experiment: Selective inhibitory activity was determined against kappa & delta opioid receptor in chinese Hamster Ovary (CHO) cell membranes
[2] = biological target: Opioid receptors; mu & kappa (Homo sapiens) (UniProt P41145+P35372); experiment: Selective inhibitory activity was determined against kappa & mu opioid receptor in chinese Hamster Ovary (CHO) cell membranes
[3] = biological target: Kappa-type opioid receptor (Homo sapiens, UniProt P41145); experiment: Inhibitory activity in stimulating [35S]-GTP-gamma S binding mediated by the Opioid receptor kappa 1 in chinese Hamster Ovary (CHO) cell membranes was determined; format: functional
[4] = biological target: Mu-type opioid receptor (Homo sapiens, UniProt P35372); experiment: Inhibitory activity against Opioid receptor mu 1 in chinese Hamster Ovary (CHO) cells membranes was determined using [3H]-DAMGO radioligand; format: cell-based

Compound | Selectivity [1] | Selectivity [2] | EC50 [3] | Ki [4]
Oc1ccc2c(c1)[C@@]13CCCC[C@H]1[C@@H](C2)N(CC1CCC1)CC3 [BUTORPHAN] | 70 | 3 |  | 
Oc1ccc2c(c1)[C@@]13CCCC[C@H]1[C@@H](C2)N(CC1CC1)CC3 [CYCLORPHAN] |  |  | 0.19 nM | 
CN1CC[C@]23CCCC[C@H]2[C@H]1Cc1ccc(O)cc13 [LEVORPHANOL] | 2 | 0.09 |  | 0.21 nM
